Reference: patent US7939341B2, “Membrane arrays and methods of manufacture” (Corning Incorporated, priority 2004, dated 2011)

The chains behind the UniProt entries cited, without tags or fusion partners.
UniProt P35372, whole entry: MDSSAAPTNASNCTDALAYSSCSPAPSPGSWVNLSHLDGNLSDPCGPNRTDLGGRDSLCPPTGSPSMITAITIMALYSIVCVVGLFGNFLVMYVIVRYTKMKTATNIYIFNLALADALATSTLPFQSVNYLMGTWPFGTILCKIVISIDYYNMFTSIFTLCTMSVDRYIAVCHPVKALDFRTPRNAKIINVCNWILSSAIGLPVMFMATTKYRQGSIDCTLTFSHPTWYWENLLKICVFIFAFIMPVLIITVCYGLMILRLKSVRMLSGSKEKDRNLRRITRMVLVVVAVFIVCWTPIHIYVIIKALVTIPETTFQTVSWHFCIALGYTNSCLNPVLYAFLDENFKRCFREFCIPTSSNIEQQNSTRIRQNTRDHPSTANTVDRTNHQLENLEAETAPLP

Target: opioid receptor mu subtype (Opioid Mu) (Homo sapiens, UniProt P35372)
Conditions: agonist at 1 μM; 10 nM Eu-GTP, 3 μM GDP; 1 hour incubation; Opioid Mu microspots on porous slide; time-resolved fluorescence

Substance: dynorphin A
- binding of EuGTP to the GPCR microspots (receptor activation by agonist): increase the binding of EuGTP
